Values quoted from earlier work, collected in patent US20200392239A1, “USE OF A MULTIMERIC ANTI-DR5 BINDING MOLECULE IN COMBINATION WITH A CHEMOTHERAPEUTIC AGENT FOR TREATING CANCER” (IGM Biosciences, Inc., priority 2018, published 2020).

Target: DR5 (Homo sapiens, UniProt O14763)
Conditions: Reck et al., 2013; cited from earlier work

Tigatuzumab: anti-DR5 monoclonal antibody (CS-1008, Daiichi Sankyo Co. Ltd., U.S. Pat. No. 7,244,429)
clinical efficacy: not resulted in significant clinical efficacy
